According to US11845808B2, “Peptide inhibitors of interleukin-23 receptor and their use to treat inflammatory diseases” (Janssen Biotech, Inc., priority 2020, dated 2023):

What was measured:
IL-23R = biological target: T1, IL-23R (Homo sapiens, UniProt Q5VWK5); test: DB cells IL23R pSTAT3 cell assay (pStat3 HTRF); assay type: cell-based; details: IL-23R-expressing DB cells, IL-23 0.5 nM, 30 minutes
T1 construct: examines the levels of pSTAT3 in IL-23R-expressing DB cells when stimulated with IL-23; host or cells: DB cells
T1 sequence (Q5VWK5 24-629): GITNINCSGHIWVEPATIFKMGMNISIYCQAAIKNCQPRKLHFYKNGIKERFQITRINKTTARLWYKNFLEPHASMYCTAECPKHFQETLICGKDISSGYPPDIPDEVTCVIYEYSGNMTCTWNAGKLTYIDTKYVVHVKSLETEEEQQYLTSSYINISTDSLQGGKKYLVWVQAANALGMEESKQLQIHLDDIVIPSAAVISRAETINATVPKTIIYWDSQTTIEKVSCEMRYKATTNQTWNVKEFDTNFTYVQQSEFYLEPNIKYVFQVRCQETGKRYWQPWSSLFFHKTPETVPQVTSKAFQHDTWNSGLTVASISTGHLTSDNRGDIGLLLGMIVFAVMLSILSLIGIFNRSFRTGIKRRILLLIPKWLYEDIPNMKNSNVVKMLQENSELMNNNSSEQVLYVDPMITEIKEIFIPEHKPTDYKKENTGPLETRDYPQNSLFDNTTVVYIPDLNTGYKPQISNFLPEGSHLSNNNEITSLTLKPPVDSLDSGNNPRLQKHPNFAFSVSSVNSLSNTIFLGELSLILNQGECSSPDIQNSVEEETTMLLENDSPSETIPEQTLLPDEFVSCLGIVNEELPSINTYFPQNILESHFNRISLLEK
Description: Human ELISA indicates the IL23-IL23R competitive binding assay described below, Rat ELISA indicates the rat IL-23R competitive binding ELISA assay described below, and pStat3HTRF indicates the DB cells IL-23R pSTAT3 cell assay described below. The peptides depicted in Table E1A and Table E1B are cyclized via a disulfide bridge formed between two Pen residues in these peptides. The peptides depicted in Table E2 are cyclized via a thioether bond between the indicated amino acid residues. Table E2 provides an illustrative structure depicting thioether cyclization, which is indicated in the table by the term “cyclo,” with the cyclic region bracketed immediately following the term “cyclo.” For certain peptides, the residue Abu is present where indicated, whereas in other embodiments, e.g., those related to the non-cyclized form, the Abu may be referred to as a hSer(Cl) or homoSer residue.
DB Cells IL23R pSTAT3 Cell Assay
Where not shown or it is marked as “0”, data was not yet determined.

[1] = Stability in simulated gastric fluid (SGF); assay type: in vitro ADME; details: pepsin, pH=2, 37° C., 20 μM peptide
Procedure: Studies were carried out in simulated intestinal fluid (SIF) and simulated gastric fluid (SGF) to evaluate gastric stability of the peptide inhibitors of the present invention. In addition, studies were carried out to assess redox stability of the peptide inhibitors of the present invention.
SGF was prepared by adding 20 mg NaCl, 32 mg porcine pepsin (MP Biochemicals, catalog 02102599), and 700 HCl to 10 ml water (final pH=2). Aliquots of SGF (0.5 ml each) were pre-warmed at 37° C. To start the reaction, 1 μl of peptide stock solution (10 mM in DMSO) was added to 0.5 ml SGF and thoroughly mixed such that the final peptide concentration was 20 μM. The reactions were incubated at 37° C. with gentle shaking. At each time point (0, 15, 30, 60 min) 50 μl aliquots were removed and added to 200 ul acetonitrile containing 0.1% formic acid to quench the reaction. Samples are stored at 4° C. until the end of the experiment and centrifuged at 10,000 rpm for 5 minutes. Aliquots of the supernatant were removed, diluted 1:1 into distilled water containing internal standard, and analyzed by LCMS/MS. Percent remaining at each timepoint was calculated based on the peak area response ratio of test to compound to internal standard. Time 0 was set to 100%, and all later timepoints were calculated relative to time 0. Half-lives were calculated by fitting to a first-order exponential decay equation using GraphPad.

[2] = Stability in cynomolgus monkey fecal homogenate; assay type: in vitro ADME; details: 20% cynomolgus monkey fecal homogenate, 37° C., 20 μM
[3] = Stability in human fecal homogenate; assay type: in vitro ADME; details: 20% human fecal homogenate, 37° C., 20 μM
Stability in rat plasma = assay type: in vitro ADME; details: SD rat plasma, 37° C., 20 μM
[4] = Stability in simulated intestinal fluid (SIF); assay type: in vitro ADME; details: 100 fold dilution of standard SIF concentration, 37° C., 20 μM
Procedure, shortened: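 Peptides at 20 μM final were incubated at 37 °C in SIF (potassium phosphate with pancreatin, pH 6.8), and reactions were quenched with acetonitrile/1% formic acid at time points from 0 min to 24 h. Percent remaining relative to time 0 was determined by LC-MS/MS against an internal standard, and half-life came from a first-order decay fit.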

[5] = biological target: IL-23 stimulated phosphorylated STAT3 in PBMCs (Homo sapiens, UniProt Q5VWK5); test: PBMC pSTAT3 assay; assay type: cell-based; details: PBMCs from healthy donors, IL-23 5 ng/mL, 30 minutes
[6] = biological target: IL-23 induced IFNγ in natural killer (NK) cells (Homo sapiens, UniProt Q5VWK5); test: NK cell based assay (IL-23/IL-18 induced IFNγ); details: IL-23 at EC50 to EC75 and IL-18 10 ng/mL, IFNγ in supernatant after 20 to 24 hours
Description: Example 3: NK Cell Based Assay

Row | Substance | IC50 (IL-23R) | SGF t½ [1] | t½: Monkey Feces anaerobic [2] | t½: Human Feces anaerobic [3] | t½: Rat Plasma EDTA (Stability in rat plasma) | SIF t½ [4] | IC50 [5] | IC50 [6]
1 | Ac-[Abu]-Q-T-[W(7-Me)]-Q-[Cys]-Phe[4-(2-aminoethoxy)]-[2-Nal]-[THP]-E-N-[3Pal]-[Sarc]-NH2 [Peptide 109] | 0.041 nM | 17 h | 12.6 h | 3 h | >24.0 h | 14.1 h |  | 
2 | Ac-[Pen]-E-T-[W(7-Me)]-[Lys(Ac)]-[Pen]-Phe[4-(2-aminoethoxy)]-[2-Nal]-[THP]-[Lys(Ac)]-N-[3Pal]-[Sarc]-NH2 [Peptide 138] | 0.054 nM | >24.0 h | >24.0 h | >24.0 h | >24.0 h | 9 h |  | 
3 | Ac-[Pen]-E-T-[W(7-Ph)]-[Lys(Ac)]-[Pen]-Phe[4-(2-aminoethoxy)]-[2-Nal]-[THP]-[Lys(Ac)]-N-[3Pal]-[Sarc]-NH2 [Peptide 139] | 0.077 nM | >24.0 h | >24.0 h | >24.0 h | >24.0 h | 16.4 h |  | 
4 | Ac-[Pen]-N-T-[W(7-(3-carboxamidophenyl))]-[Lys(Ac)]-[Pen]-Phe[4-(2-aminoethoxy)]-[2-Nal]-[THP]-E-N-[3Pal]-[Sarc]-NH2 [Peptide 142] | 0.09 nM | >24.0 h | >24.0 h | >24.0 h | >24.0 h | >24.0 h |  | 
5 | Ac-[Pen]-N-T-[W(7-Me)]-[Lys(Ac)]-[Pen]-Phe[4-(2-aminoethoxy)]-[2-Nal]-[NMe(Lys)]-[Lys(Ac)]-N-[His_3Me]-NH2 [Peptide 145] | 0.029 nM | >24.0 h | 19.3 h | >24.0 h |  | >24.0 h | 0.12 nM | 
6 | Ac-[Pen]-N-T-[W(7-Me)]-[Lys(Ac)]-[Pen]-Phe[4-(2-aminoethoxy)]-[2-Nal]-[THP]-[Lys(Ac)]-N-[3Pal]-[Sarc]-NH2 [Peptide 133] | 0.06 nM | >24.0 h |  |  | >24.0 h | 13.8 h |  | 
7 | Ac-[Pen]-N-T-[W(7-Ph)]-[Lys(Ac)]-[Pen]-Phe[4-(2-aminoethoxy)]-[2-Nal]-[THP]-[Lys(Ac)]-N-[3Pal]-[Sarc]-NH2 [Peptide 117] | 0.02 nM | >24.0 h |  |  | >24.0 h | >24.0 h |  | 0.0281 nM
